The values below are quoted from earlier work in patent publication EP0993306B1, “PERFLUOROALKYLATED OLIGOMER COMPOUNDS, PROCESS FOR PREPARING THE SAME AND THEIR USE IN NMR DIAGNOSIS” (SCHERING AKTIENGESELLSCHAFT, priority 1997, dated 1999).

The conditions of the series: in vivo, iv; cited from earlier work.

With Albumin-Gd-DTPA, the “Anreicherung im Lebergewebe” value was ~30 % der Dosis and the “Elimination in 24 Stunden” value was 20 % der Dosis.
